Reference: patent US10155749B2, “Substituted benzimidazolium compounds useful in the treatment of respiratory diseases” (Boehringer Ingelheim International GmbH, priority 2015, dated 2018)

Amino acid sequences for entries named in this document (tags omitted).
UniProt Q61180, whole entry: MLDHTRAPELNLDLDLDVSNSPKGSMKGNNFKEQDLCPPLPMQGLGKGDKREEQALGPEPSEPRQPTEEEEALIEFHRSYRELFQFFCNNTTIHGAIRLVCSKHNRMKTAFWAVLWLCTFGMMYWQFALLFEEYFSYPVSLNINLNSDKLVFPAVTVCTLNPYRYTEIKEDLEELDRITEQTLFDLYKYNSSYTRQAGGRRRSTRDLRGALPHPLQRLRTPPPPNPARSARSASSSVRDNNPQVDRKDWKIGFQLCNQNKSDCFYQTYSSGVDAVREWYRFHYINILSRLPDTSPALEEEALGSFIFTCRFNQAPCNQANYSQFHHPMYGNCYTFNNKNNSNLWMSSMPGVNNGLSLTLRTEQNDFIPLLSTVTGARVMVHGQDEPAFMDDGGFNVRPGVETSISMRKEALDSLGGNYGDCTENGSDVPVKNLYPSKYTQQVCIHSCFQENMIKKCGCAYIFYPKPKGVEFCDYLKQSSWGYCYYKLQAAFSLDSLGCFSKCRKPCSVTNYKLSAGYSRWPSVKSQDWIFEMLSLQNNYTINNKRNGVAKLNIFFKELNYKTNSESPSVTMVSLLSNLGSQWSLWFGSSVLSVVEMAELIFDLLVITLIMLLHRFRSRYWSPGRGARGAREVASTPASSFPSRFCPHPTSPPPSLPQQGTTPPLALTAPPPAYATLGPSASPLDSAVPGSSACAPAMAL
UniProt Q9WU38, whole entry: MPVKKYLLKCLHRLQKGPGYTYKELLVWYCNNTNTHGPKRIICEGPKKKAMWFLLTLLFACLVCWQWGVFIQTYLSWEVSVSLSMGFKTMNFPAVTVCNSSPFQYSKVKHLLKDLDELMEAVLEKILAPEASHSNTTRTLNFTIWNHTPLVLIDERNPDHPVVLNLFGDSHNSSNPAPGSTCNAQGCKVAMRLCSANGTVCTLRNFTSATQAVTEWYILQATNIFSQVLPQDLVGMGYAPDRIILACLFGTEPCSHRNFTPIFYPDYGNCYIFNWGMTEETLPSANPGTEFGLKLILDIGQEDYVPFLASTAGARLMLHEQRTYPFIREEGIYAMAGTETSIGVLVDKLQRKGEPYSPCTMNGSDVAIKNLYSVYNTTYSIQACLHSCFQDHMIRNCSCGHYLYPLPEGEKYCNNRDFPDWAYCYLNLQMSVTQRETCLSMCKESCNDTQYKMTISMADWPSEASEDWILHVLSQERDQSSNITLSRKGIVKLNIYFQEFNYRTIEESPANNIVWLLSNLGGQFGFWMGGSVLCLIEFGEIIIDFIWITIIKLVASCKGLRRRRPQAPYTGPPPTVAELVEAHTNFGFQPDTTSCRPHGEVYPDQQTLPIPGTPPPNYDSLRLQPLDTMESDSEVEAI
UniProt Q9WU39, whole entry: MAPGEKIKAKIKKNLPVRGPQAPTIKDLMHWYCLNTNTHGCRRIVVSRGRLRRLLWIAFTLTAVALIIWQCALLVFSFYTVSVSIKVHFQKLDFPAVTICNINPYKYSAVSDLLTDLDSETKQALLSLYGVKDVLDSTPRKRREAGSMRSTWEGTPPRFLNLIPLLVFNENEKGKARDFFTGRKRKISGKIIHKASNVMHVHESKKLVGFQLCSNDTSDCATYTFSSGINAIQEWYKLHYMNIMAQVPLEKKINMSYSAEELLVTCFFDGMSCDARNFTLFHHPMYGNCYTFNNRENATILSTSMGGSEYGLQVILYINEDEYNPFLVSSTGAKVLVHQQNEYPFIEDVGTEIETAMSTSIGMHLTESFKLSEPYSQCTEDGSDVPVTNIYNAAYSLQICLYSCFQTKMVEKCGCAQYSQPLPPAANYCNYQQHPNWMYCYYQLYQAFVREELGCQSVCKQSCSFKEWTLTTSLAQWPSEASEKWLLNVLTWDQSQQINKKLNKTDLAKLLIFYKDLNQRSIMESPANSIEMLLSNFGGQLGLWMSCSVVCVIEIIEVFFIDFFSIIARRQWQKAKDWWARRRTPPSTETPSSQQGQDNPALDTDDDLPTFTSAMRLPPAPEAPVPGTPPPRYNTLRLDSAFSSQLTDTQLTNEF

Biological target: ENaC (Epithelial Sodium Channel) (Mus musculus, UniProt Q61180+Q9WU38+Q9WU39)
Experiment: Ussing Chamber assay (short circuit current, amiloride sensitive I_SC) in M-1 cells
Settings: Mouse kidney M-1 cells, apical application, 37° C.; tested form: iodide
Description: The IC50 values of the example compounds given above were determined in the Ussing Chamber assay.
Ussing Chamber: Mouse kidney M-1 cells were cultivated in DMEM containing 5% FCS and 5 μM dexamethasone for 10 to 12 days on polyester transwell filters. Filters were inserted into a teflon-coated well-plate which fit into the ussing chamber system. Prior to measurement the medium of M-1 cells was replaced with Caco-2 transport buffer (Invitrogen, Germany). During measurements, the Ussing chamber temperature was kept at 37° C. Short circuit currents (I_sc) were measured in the voltage-clamp mode with the software package Lab View for data acquisition and analysis. The transepithelial electrical resistance (TEER) was determined by the application of voltage steps of ±5 mV every 5 sec. Compounds were administered at a final concentration of 3 μM or at increasing concentrations (1-3-10 μM) to the apical solution. At the end of each experiment the amiloride sensitive I_SC was measured by adding 3 μM amiloride to the apical compartment. Results are expressed as inhibition in percent of the amiloride effect or as IC50.

Work on `CCn1c(CNC(=O)c2nc(Cl)c(N)nc2N)[n+](CC)c2ccc(OCCNC(=O)[C@H](C)NC(=O)OC(C)(C)C)cc21` yielded an IC50 of 1 nM.
